Laboratory results reported in ChEMBL document CHEMBL1144454, “Design, synthesis, and biological activities of pyrrolylethanoneamine derivatives, a novel class of monoamine oxidases inhibitors” (J Med Chem, 2005).

Assay: Selectivity for bovine Monoamine oxidase A as ratio of Ki(MAO-B)/Ki(MAO-A)

| SMILES | A-selectivity |
| --- | --- |
| Cn1cccc1C(=O)C(c1ccccc1)N1CCCC1 (racemic) | 80000 |
| Cn1cccc1C(=O)[C@@H](c1ccccc1)N1CCCC1 | 200000 |
| Cn1cccc1C(=O)[C@H](c1ccccc1)N1CCCC1 | 52600 |
